Results taken from US8835418B2, “Hexafluoroisopropyl carbamate derivatives, their preparation and their therapeutic application” (SANOFI, priority 2010, dated 2014).

By UniProt entry, the sequences of proteins in these tests, tags left out.
UniProt O35678, whole entry: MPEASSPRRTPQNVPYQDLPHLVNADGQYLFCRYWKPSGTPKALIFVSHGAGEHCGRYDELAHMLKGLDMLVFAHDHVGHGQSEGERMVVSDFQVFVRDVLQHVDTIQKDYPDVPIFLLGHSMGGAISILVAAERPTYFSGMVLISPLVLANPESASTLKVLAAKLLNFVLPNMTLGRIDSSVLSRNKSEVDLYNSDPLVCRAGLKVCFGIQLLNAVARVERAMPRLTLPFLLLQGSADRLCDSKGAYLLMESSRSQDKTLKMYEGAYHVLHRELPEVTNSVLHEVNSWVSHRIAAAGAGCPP

Molecular target: enzyme MGL (monoacyl glycerol lipase) (Mus musculus, UniProt O35678)
Experiment: radioenzymatic assay of MGL activity (hydrolysis of [3H]2-oleoylglycerol by mouse brain homogenate)
Format: biochemical
Settings: read-out: IC50 (concentration which inhibits the control enzymatic activity of the MGL by 50%), mouse brain homogenate (37.5 μg protein), 20 min preincubation, 50 μM 2-OG with [3H]2-OG, ambient temperature

IC50: 1.4 nM
SMILES: O=C(OC(C(F)(F)F)C(F)(F)F)N1CC(CCNS(=O)(=O)c2ccc(Cl)cc2)C1
